Columns and labels:
Assay type in all cases: cell-based
[1] = target: T1, human (α6/3)β2β3-nAChR (Homo sapiens, UniProt P17787+P32297+Q15825); assay: 86Rb+ ion efflux assay, SH-EP1-h(α6/3)β2β3 cells
T1 construct: expressed in transfected cells; host or cells: SH-EP1 human epithelial cells (SH-EP1-h(α6/3)β2β3)
Source text: (§1) Cell lines naturally or heterologously expressing specific, functional, human nAChR subtypes were used. The human clonal cell line TE671/RD naturally expresses human muscle-type α1*-nAChRs, containing α1, β1, γ, and δ subunits, with function detectable using ^86Rb^+ efflux assays. […] These cells heterologously express human nAChR chimeric (α6/3) subunits (wherein the extracellular, N-terminal, ligand-binding domain of the human nAChR α6 subunit replaces that domain in the nAChR α3 subunit) along with human β2 and β3 subunits. […] Cells were passaged once a week by splitting just-confluent cultures 1/300 (TE671/RD), 1/10 (SH-SY5Y), or 1/40 (transfected SH-EP1) in serum-supplemented medium to maintain log-phase growth.
(§2) One newer modification on these techniques involves low temperature incubation before assays to increase the surface expression of high sensitivity (HS) relative to low sensitivity (LS) α4β2 nAChRs and to enhance surface expression of (α6/3)β2β3-nAChRs. […] In brief, this allows us to determine efficacies of test compounds at LS and HS α4β2 nAChRs, respectively, as the ordinate values of the linear regressions at abscissa values of 0% and 100% of sazetidine-A efficacy.
(§3) Results are normalized to responses to a fully efficacious concentration of carbamylcholine (see Materials and Methods for details). […]

Sequences of proteins named here, by UniProt entry; tags and fusion partners are left off. A change or cut given only in a name is not applied to a line headed by its entry. Residues count along the entry.
UniProt P17787, 26-502: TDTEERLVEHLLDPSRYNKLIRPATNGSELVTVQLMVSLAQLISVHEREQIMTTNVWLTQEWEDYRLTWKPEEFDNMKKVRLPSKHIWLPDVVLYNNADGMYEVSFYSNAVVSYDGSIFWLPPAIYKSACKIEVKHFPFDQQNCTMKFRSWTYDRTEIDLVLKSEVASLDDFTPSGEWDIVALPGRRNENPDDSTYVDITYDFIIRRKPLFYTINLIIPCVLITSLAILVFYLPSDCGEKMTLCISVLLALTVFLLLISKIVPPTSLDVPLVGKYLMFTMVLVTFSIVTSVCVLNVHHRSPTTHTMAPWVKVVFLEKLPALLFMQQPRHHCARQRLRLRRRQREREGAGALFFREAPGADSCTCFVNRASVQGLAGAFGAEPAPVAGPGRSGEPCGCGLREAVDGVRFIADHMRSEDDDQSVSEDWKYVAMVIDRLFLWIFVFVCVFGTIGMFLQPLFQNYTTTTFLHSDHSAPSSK
UniProt P32297: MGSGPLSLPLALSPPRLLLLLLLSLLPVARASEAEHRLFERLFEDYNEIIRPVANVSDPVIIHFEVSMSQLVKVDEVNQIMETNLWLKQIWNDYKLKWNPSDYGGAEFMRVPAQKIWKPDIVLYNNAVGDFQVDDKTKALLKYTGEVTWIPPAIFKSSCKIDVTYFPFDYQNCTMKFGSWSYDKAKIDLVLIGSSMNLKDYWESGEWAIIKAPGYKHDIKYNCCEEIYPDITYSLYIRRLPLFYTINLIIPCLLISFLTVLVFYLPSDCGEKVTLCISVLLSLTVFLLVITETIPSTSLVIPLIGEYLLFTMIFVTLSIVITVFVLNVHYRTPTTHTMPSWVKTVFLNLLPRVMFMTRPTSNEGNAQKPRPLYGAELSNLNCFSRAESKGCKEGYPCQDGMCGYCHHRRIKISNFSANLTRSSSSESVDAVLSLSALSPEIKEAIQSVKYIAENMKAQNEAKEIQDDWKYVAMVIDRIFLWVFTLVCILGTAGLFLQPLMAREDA
UniProt Q15825: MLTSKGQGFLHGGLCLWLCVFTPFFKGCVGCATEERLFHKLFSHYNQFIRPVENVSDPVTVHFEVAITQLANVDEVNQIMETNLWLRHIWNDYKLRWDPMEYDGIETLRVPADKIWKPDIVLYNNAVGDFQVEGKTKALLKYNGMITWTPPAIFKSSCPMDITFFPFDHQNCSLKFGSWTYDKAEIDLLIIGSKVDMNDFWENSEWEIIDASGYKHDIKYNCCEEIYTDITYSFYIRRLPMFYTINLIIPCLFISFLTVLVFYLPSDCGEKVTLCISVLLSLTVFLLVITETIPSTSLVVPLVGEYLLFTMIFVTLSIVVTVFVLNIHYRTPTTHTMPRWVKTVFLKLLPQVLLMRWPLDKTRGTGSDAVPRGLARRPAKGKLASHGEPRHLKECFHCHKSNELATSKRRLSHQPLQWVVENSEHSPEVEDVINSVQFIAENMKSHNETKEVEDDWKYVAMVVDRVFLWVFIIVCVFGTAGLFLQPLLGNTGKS
UniProt P43681, 29-627 limits assumed: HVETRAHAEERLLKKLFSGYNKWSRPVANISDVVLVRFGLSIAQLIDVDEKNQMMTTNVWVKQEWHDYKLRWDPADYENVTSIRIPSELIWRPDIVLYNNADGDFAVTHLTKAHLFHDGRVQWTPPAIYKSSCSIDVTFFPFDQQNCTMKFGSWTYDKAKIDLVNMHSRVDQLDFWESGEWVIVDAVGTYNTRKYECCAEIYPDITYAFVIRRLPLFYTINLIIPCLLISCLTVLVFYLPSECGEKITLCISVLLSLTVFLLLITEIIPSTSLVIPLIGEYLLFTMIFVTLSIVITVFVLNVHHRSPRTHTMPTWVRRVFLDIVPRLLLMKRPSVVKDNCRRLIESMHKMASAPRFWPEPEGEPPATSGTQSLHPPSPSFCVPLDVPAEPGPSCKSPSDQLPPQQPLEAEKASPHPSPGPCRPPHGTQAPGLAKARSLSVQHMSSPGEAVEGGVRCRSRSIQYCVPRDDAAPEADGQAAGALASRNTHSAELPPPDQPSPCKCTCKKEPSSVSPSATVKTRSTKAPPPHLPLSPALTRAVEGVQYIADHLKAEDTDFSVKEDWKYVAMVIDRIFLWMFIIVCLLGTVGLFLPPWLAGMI

[2] = target: T2, HS (high sensitivity) α4β2-nAChRs (Homo sapiens, UniProt P17787+P43681); assay: 86Rb+ ion efflux assay, HS α4β2 efficacy by regression on sazetidine-A efficacy; conditions: relative to carbamylcholine
T2 construct: expressed in transfected cells; host or cells: SH-EP1 human epithelial cells (SH-EP1-hα4β2)
Source text: as §1, §2, §3

[3] = target: T3, LS (low sensitivity) α4β2-nAChRs (Homo sapiens, UniProt P17787+P43681); assay: 86Rb+ ion efflux assay, LS α4β2 efficacy by regression on sazetidine-A efficacy; conditions: relative to carbamylcholine
T3 construct: expressed in transfected cells; host or cells: SH-EP1 human epithelial cells (SH-EP1-hα4β2)
Source text: as §1, §2, §3

## CN1CCC[C@H]1c1cccnc1 [Nicotine]
[1]; normalized to a full agonist
  Agonism (α6/3)β2β3-nAChR Efficacy: 56 ± 0.06
[1]; normalized to a full antagonist
  Inactivation (α6/3)β2β3-nAChR Efficacy: 26 ± 1.4%
[2]
  Agonism α4β2-nAChR HS Efficacy: 124 ± 8.5%
[3]
  Agonism α4β2-nAChR LS Efficacy: 70 ± 5.9%

From publication PMC4184702 (Pharmacology Research & Perspectives, 2014)
